In general, Kd refers to the concentration at which binding is half-saturated.

Where a chain is given by its changes, count along the chain named.

The source of these data is patent publication US20230365671A1 (ONCOONE RESEARCH AND DEVELOPMENT, published 2023).

Experiment [1] deals with T1, Mouse oxMIF (mouse recombinant MIF treated with 0.2% Proclin300, oxMIF surrogate) (mouse, UniProt P34884 2-115, treated with 0.2% Proclin300 (active component 5-chloro-2-methyl-4-isothiazolin-3-one) for 3 h to transform MIF into an oxMIF surrogate).
T1 construct: SPR analyte; also called Proclin300 treated MIF; soluble mouse oxMIF
The experiment in a line: SPR (Biacore 3000), antibody amine-coupled to CM5 chip, Proclin300-treated MIF 50-150 nM as analyte, 1:1 Langmuir with mass transfer; mean of flow cells 2-4, SD +/-2.67 nM. Here is the method: (§1) The newly designed antibodies C0108 and C0109, as well as the control anti-oxMIF antibody C0008 were immobilized to Biacore CM5 optical sensor chips (GE Healthcare) using standard amine coupling conditions to a density of about 2500, 1500 or 100 RU on Flow cells FC2, FC3 and FC4, respectively. FC1 was used as reference cell and was only reacted with buffers. Mouse or human recombinant MIF were diluted in HBS-EP buffer (GE Healthcare) to concentrations of 50, 75, 100, or 150 nM in the presence of 0.2% Proclin300 (active component 5-chloro-2-methyl-4-isothiazolin-3-one; Sigma) to transform MIF into an oxMIF surrogate (Thiele M et al., 2015) for 3 h at room temperature. […] The kinetics of the concentration series were analyzed by local simultaneous association/dissociation fitting of each binding curve after subtraction of background from the reference cell (FC1) using the iterative Langmuir 1:1 interaction model with mass transfer compensation provided by the BiaEvaluation 4.1 software (GE Healthcare). Data are represented as mean+/−SD (standard deviation) of the calculated KD values of Flow Cells 2-4.
(§2) Results and conclusion: The binding of the newly designed antibodies with enhanced effector functions towards soluble human and mouse oxMIF determined by SPR are shown in Table 8. […]
A general note: Surface plasmon resonance follows binding to a sensor surface in real time, without labels.

For experiment [2], the target named is T1, Mouse oxMIF (mouse recombinant MIF …). In words: SPR (Biacore 3000), antibody amine-coupled to CM5 chip, Proclin300-treated MIF 50-150 nM as analyte, 1:1 Langmuir with mass transfer; mean of flow cells 2-4, SD +/-0.21 nM. Here is the method: as §1, §2
Experiment [3] shares this target. The experiment in a line: SPR (Biacore 3000), antibody amine-coupled to CM5 chip, Proclin300-treated MIF 50-150 nM as analyte, 1:1 Langmuir with mass transfer; mean of flow cells 2-4, SD +/-3.01 nM. The protocol:
as §1, §2

B1: anti-oxMIF antibody C0108 (antibody, human IgG1, kappa)
heavy: EVQLQESGGGLVQPGGSLRLSCAASGFTFSIYSMNWVRQAPGKGLEWVSSIGSSGGTTYYADSVKGRFTISRDNSKNTLYLQMNSLRAEDTAVYYCAGSQYLYGMDVWGQGTTVTVSSASTKGPSVFPLAPSSKSTSGGTAALGCLVKDYFPEPVTVSWNSGALTSGVHTFPAVLQSSGLYSLSSVVTVPSSSLGTQTYICNVNHKPSNTKVDKKVEPKSCDKTHTCPPCPAPELLGGPDVFLFPPKPKDTLMISRTPEVTCVVVDVSHEDPEVQFNWYVDGVEVHNAKTKPREEQFNSTFRVVSVLTVVHQDWLNGKEYKCKVSNKALPAPEEKTISKTKGQPREPQVYTLPPSREEMTKNQVSLTCLVKGFYPSDIAVEWESNGQPENNYKTTPPMLDSDGSFFLYSKLTVDKSRWQQGNVFSCSVMHEALHNHYTQKSLSLSPG
light: DIQMTQSPSSLSASVGDRVTITCRSSQRIMTYLNWYQQKPGKAPKLLIYVGSHSQSGVPSRFRGSGSETDFTLTISGLQPEDSATYYCQQSFFTPLTFGGGTKVEIKRTVAAPSVFIFPPSDEQLKSGTASVVCLLNNFYPREAKVQWKVDNALQSGNSQESVTEQDSKDSTYSLSSTLTLSKADYEKHKVYACEVTHQGLSSPVTKSFNRGEC
notes: ADCC/ADCP enhancing mutations in the Fc portion
For the molecule B1, the Kd in experiment [1] stood at 31.6 nM.

B2: anti-oxMIF antibody C0109 (antibody, human IgG1, kappa)
heavy: B1 heavy
light: B1 light with M30L, P80S
notes: as for B1
Regarding B2, in experiment [2], the equilibrium dissociation constant (Kd) is 28.6 nM.

B3: anti-oxMIF antibody C0008 (control antibody) (antibody, human IgG1, kappa, V domains shown)
VH: EVQLLESGGGLVQPGGSLRLSCAASGFTFSIYSMNWVRQAPGKGLEWVSSIGSSGGTTYYADSVKGRFTISRDNSKNTLYLQMNSLRAEDTAVYYCAGSQWLYGMDVWGQGTTVTVSS
VL: DIQMTQSPSSLSASVGDRVTITCRSSQRIMTYLNWYQQKPGKAPKLLIFVASHSQSGVPSRFRGSGSETDFTLTISGLQPEDSATYYCQQSFWTPLTFGGGTKVEIKR
notes: Human IgG with wt Fc
Consider B3, for which the Kd in experiment [3] was 26.9 nM.
